# Article PMC6524416, “Nanofibrous Scaffolds Support a 3D in vitro Permeability Model of the Human Intestinal Epithelium” (Frontiers in Pharmacology, 2019)
# Tests used:
# [1] = test system: Caco-2 cultures on nanofibrous scaffolds; conditions: Caco-2, pH 7.4
# [2] = test system: Caco-2 monolayers on Transwell®
# [3] = test system: porcine intestinal segments
substance,measurement,setting,value
FITC-dextran 4000 [FD4],Papp (A to B),[1],4.51 (±0.67) × 10^-6 cm s^-1
same,Papp (B to A),[1],0.75 (±0.74) × 10^-6 cm s^-1
same,total molecular flux,[2]; Caco-2,less than 0.1%
same,Papp (A to B),"[2]; Caco-2, pH 7.4",0.18 (±0.10) × 10^-6 cm s^-1
same,Papp (B to A),"[2]; Caco-2, pH 7.4",0.51 (±0.25) × 10^-6 cm s^-1
same,"Papp (A to B), range over porcine segments",[3],2.5–4.8 × 10^-6 cm s^-1
same,"Papp (B to A), range over porcine segments",[3],1.85–5.00 × 10^-6 cm s^-1
same,recovery (range),[3],50–70%
